Assay results from ChEMBL document CHEMBL1152811, “Docking model of drug binding to the human ether-à-go-go potassium channel guided by tandem dimer mutant patch-clamp data: a synergic approach” (J Med Chem, 2009).

Legend:
Format in all cases: cell-based
[1] = molecular target: Voltage-gated inwardly rectifying potassium channel KCNH2 (Homo sapiens, UniProt Q12809, Y652A); assay: Binding affinity to human ERG Y652A mutant expressed in HEK293 cells assessed as blockade of membrane current at 0.2 uM by whole cell patch clamp method; details: hek293, 0.2 µM
[2] = molecular target: T1, Voltage-gated inwardly rectifying potassium channel KCNH2 (Homo sapiens, UniProt Q12809); assay: Binding affinity to wild-type human ERG expressed in HEK293 cells assessed as blockade of membrane current at 0.05 uM by whole cell patch clamp method; details: hek293, 0.05 µM
[3] = molecular target: T1, Voltage-gated inwardly rectifying potassium channel KCNH2; assay: Binding affinity to wild-type human ERG expressed in HEK293 cells assessed as blockade of membrane current at 0.02 uM by whole cell patch clamp method; details: hek293, 0.02 µM
[4] = molecular target: Voltage-gated inwardly rectifying potassium channel KCNH2 (Homo sapiens, UniProt Q12809, F656A); assay: Binding affinity to human ERG F656A mutant expressed in HEK293 cells assessed as blockade of membrane current at 0.05 uM by whole cell patch clamp method; details: hek293, 0.05 µM

Question: With `COc1cc(N)c(Cl)cc1C(=O)NC1CCN(CCCOc2ccc(F)cc2)CC1OC` (centres undefined) [CISAPRIDE] as the molecule, how does the Activity [1] read?
Answer: Not Active

Question: And the Activity [2]?
Answer: Active

Question: What about the Activity [3] of the same molecule?
Answer: Active

Question: What about the Activity [4] of the same molecule?
Answer: Active
